Our source for the Kd values is patent publication US20040072162A1, “Hiv peptides and nucleic acids encoding them for diagnosis and control of hiv infection” (priority 2000, published 2004).

The target of the assay is HLA-A2 MHC-I (HLA-A*0204, affinity purified from the EBV transformed cell line RML) (human).

Regarding FVNTPPLV (modifications not checked) [8.111nat (4.119)], the Kd – broadly, a measure of binding affinity in units of concentration – was 32 nM.
Then KIKPPLPSV (modifications not checked) [8.10natl], with 25 nM.
